# Values of other authors, collected in patent publication US20090208944A1 (priority 2005, published 2009).
# Protein sequences, listed by entry. Tags and fused reporters are not part of them.
# UniProt P10635, whole entry: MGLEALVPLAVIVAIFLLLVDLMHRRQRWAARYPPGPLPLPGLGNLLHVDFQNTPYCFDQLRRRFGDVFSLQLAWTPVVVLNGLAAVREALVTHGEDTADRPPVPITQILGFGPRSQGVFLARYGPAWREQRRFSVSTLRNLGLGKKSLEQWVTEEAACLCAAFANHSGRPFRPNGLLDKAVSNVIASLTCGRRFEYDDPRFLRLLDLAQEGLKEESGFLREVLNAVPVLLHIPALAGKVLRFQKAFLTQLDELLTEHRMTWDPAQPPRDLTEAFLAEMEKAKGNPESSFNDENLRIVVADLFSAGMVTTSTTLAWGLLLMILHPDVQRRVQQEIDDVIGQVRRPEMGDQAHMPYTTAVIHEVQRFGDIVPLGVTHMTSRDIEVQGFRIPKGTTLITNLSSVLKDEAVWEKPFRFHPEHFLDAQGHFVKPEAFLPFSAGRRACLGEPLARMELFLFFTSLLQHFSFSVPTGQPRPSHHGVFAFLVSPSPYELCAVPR
# Target: CYP2D6 enzyme system (Homo sapiens, UniProt P10635)
# Details: classification from literature
smiles,measurement,value
CNCCC(Oc1ccc(C(F)(F)F)cc1)c1ccccc1 (stereo not shown) [fluoxetine],potency as inhibitor of the CYP2D6 enzyme system,Potent
